Test results published in patent publication US20240025949A1, “Beta-Arrestin Effectors and Compositions and Methods of Use Thereof” (Trevena, Inc., priority 2021, published 2024).

Amino acid sequences for entries named in this document (tags omitted).
UniProt P25095, whole entry: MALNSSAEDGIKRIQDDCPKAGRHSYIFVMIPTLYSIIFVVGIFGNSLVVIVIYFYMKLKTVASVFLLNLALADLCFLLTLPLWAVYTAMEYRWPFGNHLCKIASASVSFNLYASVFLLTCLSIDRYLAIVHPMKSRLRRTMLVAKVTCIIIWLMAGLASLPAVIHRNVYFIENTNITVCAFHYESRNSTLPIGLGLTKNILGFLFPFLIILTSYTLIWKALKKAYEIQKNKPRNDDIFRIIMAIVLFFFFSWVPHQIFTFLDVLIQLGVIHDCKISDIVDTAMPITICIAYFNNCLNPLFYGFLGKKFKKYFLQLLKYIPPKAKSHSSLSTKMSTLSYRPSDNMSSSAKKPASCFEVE

What was measured:
Type in all cases: cell-based
human AT1R [1] = target: T1, human AT1R (Homo sapiens, UniProt P30556); assay: PathHunter β-arrestin-2 recruitment assay, human AT1R; details: PathHunter β-arrestin HEK293 cells
T1 construct: ProLink (β-galactosidase enzyme-donor fragment, from the pCMV-ProLink vector)

rat AT1aR [2] = target: T2, rat AT1aR (Rattus norvegicus, UniProt P25095); assay: PathHunter β-arrestin-2 recruitment assay, rat AT1aR; details: PathHunter β-arrestin HEK293 cells
T2 construct: ProLink (β-galactosidase enzyme-donor fragment, from the pCMV-ProLink vector)

human AT1R [3] = target: T1, human AT1R; assay: IP1 accumulation assay (IP-One Tb), human AT1R; details: cells expressing human AT1R, inactive = EC50 greater than 10 uM
rat AT1aR [4] = target: T2, rat AT1aR; assay: IP1 accumulation assay (IP-One Tb), rat AT1aR; details: cells expressing rat AT1aR; for rat AT1aR IP One EC50 (M): inactive = EC50 greater than 10 uM

SMILES | human AT1R b-arrestin2 Max (%) (human AT1R [1]) | rat AT1aR b-arrestin2 Max (%) (rat AT1aR [2]) | human AT1R IP One EC50 (M) (human AT1R [3]) | rat AT1aR IP One Max (%) (rat AT1aR [4]) | rat AT1aR IP One EC50 (M) (rat AT1aR [4]) | human AT1R b-arrestin2 EC50 (M) (human AT1R [1]; inactive = EC50 greater than 10 uM)
CC[C@H](C)[C@@H]1NC(=O)[C@H](Cc2ccc(O)cc2)NC(=O)[C@H](C(C)C)NC(=O)[C@H](CCCNC(=N)N)NC(=O)[C@@H]2CCCN2C(=O)[C@H](Cc2c[nH]cn2)NC(=O)[C@H]([C@@H](C)CC)NC(=O)[C@H](Cc2ccc(O)cc2)NC(=O)[C@H](C(C)C)NC(=O)[C@H](CCCNC(=N)N)NC(=O)[C@@H]2CCCN2C(=O)[C@H](Cc2c[nH]cn2)NC(=O)[C@H]([C@@H](C)CC)NC(=O)[C@H](Cc2ccc(O)cc2)NC(=O)[C@H](C(C)C)NC(=O)[C@H](CCCNC(=N)N)NC(=O)[C@@H]2CCCN2C(=O)[C@H](Cc2c[nH]cn2)NC1=O [compound 36] | 39.5% | 32.8% | inactive | 19.2% | – | –
CNCC(=O)N[C@@H](CCCNC(=N)N)C(=O)N[C@H](C(=O)N[C@@H](Cc1ccc(O)c(Cl)c1)C(=O)N[C@H](C(=O)N[C@@H](Cc1c[nH]cn1)C(=O)N1CCC[C@H]1C(=O)N[C@@H](C)C(=O)O)[C@@H](C)OC)C(C)C [compound 79] | 64.8% | 93.6% | inactive | – | Inactive | –
CN[C@@H](CCC(=O)O)C(=O)N[C@@H](CCCNC(=N)N)C(=O)N[C@H](C(=O)N[C@@H](Cc1ccc(O)cc1)C(=O)N[C@@H](Cc1ccc(O)cc1)C(=O)N[C@@H](Cc1c[nH]cn1)C(=O)N1CCC[C@H]1C(N)=O)C(C)C [compound 62] | 24.68% | 44.19% | inactive | – | Inactive | –
CC[C@H](C)[C@H](NC(=O)[C@H](Cc1ccc(OC)cc1)NC(=O)[C@@H](NC(=O)[C@H](CCCNC(=N)N)NC(=O)CNC)C(C)C)C(=O)N[C@@H](Cc1c[nH]cn1)C(=O)N1CCC[C@H]1C(=O)N[C@@H](C)C(=O)O [compound 29] | 43.3% | 64.8% | inactive | – | Inactive | –
CNCC(=O)N[C@@H](CCCNC(=N)N)C(=O)N[C@H](C(=O)N[C@@H](Cc1ccc(O)cc1)C(=O)N[C@@H](CCC(=O)O)C(=O)N[C@@H](Cc1c[nH]cn1)C(=O)N1CCC[C@H]1C(=O)N[C@@H](C)C(=O)O)C(C)C [compound 20] | – | 86.6% | inactive | – | Inactive | inactive
CNCC(=O)N[C@@H](CCCNC(=N)N)C(=O)N[C@H](C(=O)N[C@@H](Cc1ccc(O)cc1)C(=O)N[C@@H](Cc1ccc(O)cc1)C(=O)N[C@@H](Cc1c[nH]cn1)C(=O)N1CCC[C@H]1C(=O)N[C@@H](C)C(=O)O)C(C)C [compound 19] | 67.9% | 91.2% | inactive | – | Inactive | –
CC[C@H](C)[C@H](NC(=O)[C@H](Cc1ccc(O)cc1)NC(=O)[C@@H](NC(=O)[C@H](CCCNC(=N)N)NC(=O)[C@H](C)NC)C(C)C)C(=O)N[C@@H](Cc1c[nH]cn1)C(=O)N1CCC[C@H]1C(=O)N[C@H](C)C(=O)O [compound 44] | 47.3% | 71.9% | inactive | 14.6% | – | –
CC(C)[C@H](NC(=O)[C@H](CCCNC(=N)N)NC(=O)[C@@H](N)CCC(=O)O)C(=O)N[C@@H](Cc1ccc(O)cc1)C(=O)N[C@@H](Cc1ccccc1)C(=O)N[C@@H](Cc1c[nH]cn1)C(=O)N1CCC[C@H]1C(N)=O [compound 64] | 20.39% | 26.95% | inactive | – | Inactive | –
CC[C@H](C)[C@H](NC(=O)[C@H](Cc1ccc(O)cc1)NC(=O)[C@@H](NC(=O)[C@H](CCCNC(=N)N)NC(=O)[C@H](C)NC)C(C)C)C(=O)N[C@@H](Cc1c[nH]cn1)C(=O)N1CCC[C@H]1C(=O)N[C@@H](C)C(=O)O [compound 34] | 53.0% | 81.7% | inactive | – | Inactive | –
